By UniProt entry, the sequences of proteins in these tests, tags left out.
UniProt P31424, whole entry: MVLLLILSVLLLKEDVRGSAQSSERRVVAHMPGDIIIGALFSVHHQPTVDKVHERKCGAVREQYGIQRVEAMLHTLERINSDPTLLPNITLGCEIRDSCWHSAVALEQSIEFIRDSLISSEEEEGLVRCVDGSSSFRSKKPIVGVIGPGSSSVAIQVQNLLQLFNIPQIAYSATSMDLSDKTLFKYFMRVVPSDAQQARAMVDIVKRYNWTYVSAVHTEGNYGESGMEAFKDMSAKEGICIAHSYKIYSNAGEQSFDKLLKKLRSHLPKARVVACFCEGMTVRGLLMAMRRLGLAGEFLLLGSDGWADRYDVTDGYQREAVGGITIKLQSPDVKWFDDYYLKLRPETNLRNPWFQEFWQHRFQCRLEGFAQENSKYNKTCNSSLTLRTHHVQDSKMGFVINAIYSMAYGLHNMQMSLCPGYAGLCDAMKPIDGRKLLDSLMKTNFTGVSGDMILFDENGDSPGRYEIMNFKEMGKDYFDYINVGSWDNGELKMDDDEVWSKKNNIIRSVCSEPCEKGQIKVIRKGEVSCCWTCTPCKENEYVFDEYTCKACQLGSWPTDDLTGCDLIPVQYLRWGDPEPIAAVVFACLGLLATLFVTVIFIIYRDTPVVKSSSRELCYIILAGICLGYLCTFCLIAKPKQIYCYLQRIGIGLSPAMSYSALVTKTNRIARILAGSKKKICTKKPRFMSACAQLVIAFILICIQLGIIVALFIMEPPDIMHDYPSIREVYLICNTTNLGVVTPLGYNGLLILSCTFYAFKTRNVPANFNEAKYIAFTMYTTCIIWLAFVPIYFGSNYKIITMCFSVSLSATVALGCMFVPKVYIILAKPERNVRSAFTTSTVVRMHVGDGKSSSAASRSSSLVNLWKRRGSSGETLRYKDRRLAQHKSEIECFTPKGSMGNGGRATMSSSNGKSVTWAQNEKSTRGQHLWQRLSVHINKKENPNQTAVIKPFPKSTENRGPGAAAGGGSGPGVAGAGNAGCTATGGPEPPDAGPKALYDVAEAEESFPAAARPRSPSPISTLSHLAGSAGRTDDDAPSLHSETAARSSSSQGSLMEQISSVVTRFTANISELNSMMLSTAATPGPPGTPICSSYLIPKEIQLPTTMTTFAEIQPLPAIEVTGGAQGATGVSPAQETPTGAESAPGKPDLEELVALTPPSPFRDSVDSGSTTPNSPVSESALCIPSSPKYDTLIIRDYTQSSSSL

According to ChEMBL document CHEMBL1136508, “[3H]-methoxymethyl-MTEP and [3H]-methoxy-PEPy: potent and selective radioligands for the metabotropic glutamate subtype 5 (mGlu5) receptor” (Bioorg Med Chem Lett, 2003):

Molecular target: Metabotropic glutamate receptor 5 (Rattus norvegicus, UniProt P31424)
Assay: Binding affinity towards mGlu5 receptors in rat brain membranes was evaluated
Format: cell membranes
In short: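 Displacement of [3H]-methoxy-PEPy (specific activity 67.6 Ci/mmol) binding to rat brain membranes, incubated at room temperature (equilibrium within 60 min). Nonspecific binding was defined with an unlabelled mGlu5 antagonist as cold displacer. Concentration–response curves gave IC50 values.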

IC50: 0.02 µM
Structure (SMILES): Cc1cccc(C#Cc2ccccc2)n1
